Measured values reported in ChEMBL document CHEMBL1136167, “Prediction of hERG potassium channel affinity by traditional and hologram qSAR methods” (Bioorg Med Chem Lett, 2003).
Structures can show the parent of a compound that is named as a salt.

Amino acid sequences for entries named in this document (tags omitted). A change or cut given only in a name is not applied to a line headed by its entry.
UniProt Q12809: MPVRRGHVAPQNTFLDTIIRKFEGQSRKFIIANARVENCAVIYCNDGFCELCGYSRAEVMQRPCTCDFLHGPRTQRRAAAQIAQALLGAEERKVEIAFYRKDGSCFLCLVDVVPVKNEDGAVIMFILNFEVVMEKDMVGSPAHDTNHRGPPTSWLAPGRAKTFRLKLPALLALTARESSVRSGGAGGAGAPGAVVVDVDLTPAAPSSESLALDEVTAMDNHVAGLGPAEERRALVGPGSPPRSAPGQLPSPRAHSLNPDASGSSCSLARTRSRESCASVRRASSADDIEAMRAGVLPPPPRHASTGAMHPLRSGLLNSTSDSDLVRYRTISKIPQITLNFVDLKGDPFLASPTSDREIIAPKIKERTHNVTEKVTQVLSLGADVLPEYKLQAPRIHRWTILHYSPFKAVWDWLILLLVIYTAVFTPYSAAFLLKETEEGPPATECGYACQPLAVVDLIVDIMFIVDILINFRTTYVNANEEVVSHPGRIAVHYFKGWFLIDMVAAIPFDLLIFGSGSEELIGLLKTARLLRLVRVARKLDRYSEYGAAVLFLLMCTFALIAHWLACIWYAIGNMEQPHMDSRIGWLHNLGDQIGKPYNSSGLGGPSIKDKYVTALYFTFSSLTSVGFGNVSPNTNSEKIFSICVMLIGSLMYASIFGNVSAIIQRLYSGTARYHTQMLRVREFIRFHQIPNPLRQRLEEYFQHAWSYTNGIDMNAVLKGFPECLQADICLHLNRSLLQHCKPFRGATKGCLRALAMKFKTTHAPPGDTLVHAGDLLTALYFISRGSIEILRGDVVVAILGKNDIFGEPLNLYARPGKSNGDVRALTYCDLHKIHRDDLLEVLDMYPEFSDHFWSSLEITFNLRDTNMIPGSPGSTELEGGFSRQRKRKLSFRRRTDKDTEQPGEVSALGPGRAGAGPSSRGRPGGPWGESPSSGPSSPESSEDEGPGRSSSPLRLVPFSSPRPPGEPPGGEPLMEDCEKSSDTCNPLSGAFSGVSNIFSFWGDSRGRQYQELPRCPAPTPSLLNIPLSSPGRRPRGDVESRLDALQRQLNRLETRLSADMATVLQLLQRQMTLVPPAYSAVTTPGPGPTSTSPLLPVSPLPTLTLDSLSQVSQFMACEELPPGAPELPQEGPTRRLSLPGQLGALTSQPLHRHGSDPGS

biological target: Voltage-gated inwardly rectifying potassium channel KCNH2 (Homo sapiens, UniProt Q12809)

| Compound | IC50 [µM] |
| --- | --- |
| OC(c1cc(C(F)(F)F)nc2c(C(F)(F)F)cccc12)C1CCCCN1 (stereo not given) [MEFLOQUINE HYDROCHLORIDE] | 5.62 |
| C1CCC(C(CC2CCCCN2)C2CCCCC2)CC1 (stereo not given) [PERHEXILINE] | 7.76 |
| CNCCCN1c2ccccc2CCc2ccccc21 [DESIPRAMINE] | 1.51 |
| CN1CCN(CCCCN2C(=O)CN(/N=C/c3ccc(-c4ccc(Cl)cc4)o3)C2=O)CC1 [AZIMILIDE] | 1.41 |
| CN1CCCCC1CCN1c2ccccc2Sc2ccc([S+](C)[O-])cc21 (stereo not given) [MESORIDAZINE] | 0.324 |
